The entries are a selection whose mix differs from that of the whole data set. Results filed as inconclusive are left out. Active and inactive are the calls of the source. Calls follow the shape of the dose curve; as a rule, active = well fitted inhibition curve with a large enough effect in the polarisation, with a control signal flat (not every such curve was filed as active); inconclusive = small, poorly fitted or top-dose-only effect, or effect the other way, or a change in a side signal; inactive = no such curve, though single readings can be large or run the other way; the % refers to the polarisation.
% is scaled to controls: 0 for no effect and ±100 for the full control effect.

The chains behind the UniProt entries cited, without tags or fusion partners.
UniProt Q13526, whole entry, looked up: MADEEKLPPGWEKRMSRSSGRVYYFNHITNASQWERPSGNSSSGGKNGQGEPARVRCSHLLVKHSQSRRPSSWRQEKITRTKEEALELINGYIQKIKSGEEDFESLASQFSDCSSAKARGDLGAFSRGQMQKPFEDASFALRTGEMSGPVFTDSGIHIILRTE

The target of the experiment is Peptidyl-prolyl cis-trans isomerase NIMA-interacting 1 (Homo sapiens) (UniProt Q13526). Kind of experiment: qHTS Assay to Find Inhibitors of Pin1. The settings on record: Pin1 FP peptide displacement, HiFluor488, 10 min; at 115 µM (top of the series). (In qHTS, concentration-response curves come from the screen itself.)
As to `COc1ccc(N/C(=N/P(=O)(N2CCOCC2)N2CCOCC2)N2CCOCC2)cc1`, the activity, negative = inhibition is inactive: -7.72%.
As for `O=P1(N(CCCl)CCCl)OCCCN1CCCl` (stereo unspecified), the figure is inactive: 4.27%; as for `O=P1(N(CCCl)CCCl)Nc2ccccc2N1`, inactive: -9.89%.
As for `COc1ccc2nc(NP(=O)(c3ccccc3)c3ccccc3)sc2c1`, the figure is inactive: 0.159%; as for `COc1cc(I)ccc1[As](=O)(O)O`, inactive: -1.52%.
Turning to `Cc1c2c(nc3ccccc13)SC(C(Cl)Cl)C2` (stereo unspecified), the activity, negative = inhibition is inactive: 0.833%.
As for `O=C(OC1CN2CCC1CC2)C12CC3CC(CC(C3)C1)C2` (stereo unspecified), the figure is inactive: -0.744%; as for `Cc1cc(=O)[nH]c(N[N+](=O)[O-])n1`, inactive: -1.68%; as for `COc1cc(C2NCCC3(OCCO3)C2(C)C)cc(OC)c1OC` (stereo unspecified), inactive: -7.11%.
The result for `CCOP(=O)(Nc1cccc2ccccc12)OCC` reads inactive: -4.67%; that for `Cc1ccc(NCCc2c([N+](=O)[O-])cc([N+](=O)[O-])cc2[N+](=O)[O-])cc1`, inactive: -6.6%; that for `Nc1cccc2c([As](=O)(O)O)cccc12`, inactive: -0.436%.
As to `CCCOP(=S)(Nc1nc(N)cc(=O)[nH]1)OCCC`, the activity, negative = inhibition was inactive: 2.82%.
The result for `Cc1cccc(OCC(=O)OC2CN3CCC2CC3)c1` (stereo unspecified) reads inactive: 1.75%; that for `O=[As](O)(c1cccc(O)c1)c1cccc(O)c1`, inactive: -6.9%; that for `O=C(OC1CN2CCC1CC2)c1ccc(Cl)cc1` (stereo unspecified), inactive: -12.1%.
As for `O=[As](O)(O)c1cccnc1`, the figure is inactive: -11%.
The result for `COc1cc(C(=O)NCC2(N3CCOCC3)CCCCC2)cc(Cl)c1OC(C)C` reads inactive: 5.84%; that for `CS(=O)(=O)c1ccc(Cl)c(NC(=O)COC(=O)C(O)(c2ccccc2)c2ccccc2)c1`, inactive: -0.163%.
In the case of `N#CCCN(C(=O)COC(=O)C(O)(c1ccccc1)c1ccccc1)c1ccc(F)cc1`, the activity, negative = inhibition is inactive: -3.75%.
As for `CN(C(=O)Cc1ccccc1)[C@@H]1CC[C@]2(CCCO2)C[C@H]1N1CCCC1`, the figure is inactive: -2%; as for `CCOP1(=S)c2c(C)nn(CCC#N)c2N=C(c2ccc(F)cc2)N1C` (stereo unspecified), inactive: 2.95%.
The result for `O=[N+]([O-])c1ccc2c(c1)nnn2O` reads inactive: -1.94%; that for `CN(C)C(=O)c1cc([N+](=O)[O-])cc2c1-c1c(cc([N+](=O)[O-])cc1[N+](=O)[O-])C2=O`, inactive: 9.64%.
With `CN(C(=O)Cc1ccc(Cl)c(Cl)c1)[C@H]1CC[C@@]2(CCCO2)C[C@@H]1N1CCCC1`, the activity, negative = inhibition was inactive: -0.0792%.
The result for `NC(=O)Nc1ccc([As](=O)(O)O)cc1` reads inactive: -0.96%; that for `O=C(O)COc1ccc([As](=O)(O)O)cc1[N+](=O)[O-]`, inactive: -11.8%.
As for `Nc1ccccc1[As](=O)(O)c1ccccc1`, the figure is inactive: -0.826%; as for `CCOP1(=S)c2c(C)nn(CCC#N)c2N=C(c2ccccc2F)N1C` (stereo unspecified), inactive: -1.89%; as for `O=P(Nc1nccs1)(Oc1ccccc1)Oc1ccccc1`, inactive: 0.492%.
The result for `O=P(Nc1nccs1)(c1ccccc1)c1nc2ccccc2s1` (stereo unspecified) reads inactive: -1.9%; that for `Nc1cccc([As](=O)(O)c2ccccc2)c1`, inactive: -3%; that for `Cc1ccc(OCC(=O)OC2CN3CCC2CC3)cc1` (stereo unspecified), inactive: 0.566%.
Take `O=[As](O)(c1cccs1)c1cccs1`: the activity, negative = inhibition is inactive: -6.61%.
As for `NS(=O)(=O)c1cccc(NC(=O)COC(=O)C(O)(c2ccccc2)c2ccccc2)c1`, the figure is inactive: -1.09%; as for `O=P1(Nc2ncccn2)COc2ccccc2OC1`, inactive: -0.868%; as for `CN(C)C1(CNC(=O)c2ccc(S(C)(=O)=O)cc2)CCCCC1`, inactive: 1.93%.
Take `O=C(/C=C/c1ccccc1)OC1CN2CCC1CC2` (stereo unspecified): the activity, negative = inhibition was inactive: 0.536%.
The result for `CCCC1OP(=O)(Nc2ccccc2)OCC1CC` (stereo unspecified) reads inactive: -4.52%; that for `Cc1nn(-c2ccccc2)c2c1P(=O)(N1CCOCC1)N(C)C(c1ccccc1)=N2` (stereo unspecified), inactive: 3.01%.
For `Cc1ccc(C(=O)OC2CN3CCC2CC3)cc1` (stereo unspecified), the activity, negative = inhibition was inactive: 0.96%.
The result for `CC1CCC(C(C)C)C(OP(=O)(Nc2ccccn2)c2ccccc2)C1` (stereo unspecified) reads inactive: -2.64%; that for `CN(C(=O)Cc1ccc(Cl)c(Cl)c1)[C@@H]1CCCC[C@H]1N1CCCC1`, inactive: 2.1%; that for `CC(C)/C=N\N=C(\N)N[N+](=O)[O-]`, inactive: 0.842%.
With `CC1(CBr)Cn2c(nc3ccccc3c2=O)S1` (stereo unspecified), the activity, negative = inhibition was inactive: -0.346%.
As to `COc1ccccc1CNC(=O)COC(=O)C(O)(c1ccccc1)c1ccccc1`, the activity, negative = inhibition is inactive: -7.52%.
`Clc1n[nH]nc1-c1nn[nH][15n]1`: the activity, negative = inhibition is inactive: -14.9%.
The result for `CC(C)(C)C(=O)NC(Sc1ncccn1)C(Cl)(Cl)Cl` (stereo unspecified) reads inactive: -1.01%; that for `CCC1=CC2Cc3nc4ccc(Cl)cc4c(N)c3C(C1)C2` (stereo unspecified), inactive: 0.862%; that for `O=P1(Nc2ccccn2)COc2ccccc2OC1`, inactive: 6.09%.
The result for `CCOP(=O)(NC(=NC(C)c1ccccc1)NC(C)c1ccccc1)OCC` (stereo unspecified) reads inactive: 5.68%.
As for `CCOP(=O)(Nc1ccc(C)cn1)OCC`, the figure is inactive: -1.67%; as for `c1nnnn1CCn1cnnn1`, inactive: -10.7%.
On to `O=P(Nc1nccs1)(c1ccccc1)c1ccccc1`, for which the activity, negative = inhibition is inactive: -0.721%.
The result for `CC(C)C(=O)NC(Sc1ccccc1)C(Cl)(Cl)Cl` (stereo unspecified) reads inactive: -7.69%.
As for `O=C(OC1CN2CCC1CC2)c1cccc(Cl)c1` (stereo unspecified), the figure is inactive: 1.23%; as for `C(Cc1nn[nH]n1)Cc1nn[nH]n1`, inactive: -1.8%; as for `Nc1ccc([As](=O)(O)c2ccc([N+](=O)[O-])cc2)cc1`, inactive: -5.38%.
As for `O=[As](O)(c1ccccc1)c1ccc(O)cc1`, the figure is inactive: 2.33%; as for `CC(=O)NC(SC(=S)N(C)C)C(Cl)(Cl)Cl` (stereo unspecified), inactive: -0.697%; as for `O=[N+]([O-])c1ncn(CCn2cnc([N+](=O)[O-])n2)n1`, inactive: -6.22%.
Consider `O=[N+]([O-])c1ccc(O)c(/C=N/Nc2ccc([N+](=O)[O-])cc2[N+](=O)[O-])c1`, for which the activity, negative = inhibition was inactive: -8.49%.
As for `O=P(Nc1nc2ccccc2s1)(c1ccccc1)c1ccccc1`, the activity, negative = inhibition is inactive: 0.567%.
With `C[C@H]1OP(=O)(Oc2ccccc2)[C@H](O)[C@H](O)[C@H]1N=[N+]=[N-]` (stereo partly specified), the activity, negative = inhibition is inactive: -0.618%.
Take `CN(C)C1(CNC(=O)c2ccc(Cl)c(S(N)(=O)=O)c2)CCCCC1`: the activity, negative = inhibition was inactive: 8.57%.
The result for `O=P(Nc1ccccn1)(c1ccc(Br)cc1)c1ccc(Br)cc1` reads inactive: 0.565%; that for `COc1ccc(N)c([N+](=O)[O-])c1[N+](=O)[O-]`, inactive: -4.14%; that for `CC(NC(=O)COC(=O)C(O)(c1ccccc1)c1ccccc1)c1ccccc1` (stereo unspecified), inactive: 1.59%.
The result for `Cc1ccccc1OP(=O)(Nc1ccccn1)Oc1ccccc1C` reads inactive: -9.63%; that for `O=c1c2cc([N+](=O)[O-])ccc2[nH]c2c([N+](=O)[O-])cc([N+](=O)[O-])cc12`, inactive: 43.9%; that for `CN(C)C(=O)Oc1noc2ccccc12`, inactive: -14.4%.
The result for `O=C(OC1CN2CCC1CC2)c1ccccc1` (stereo unspecified) reads inactive: 3.01%.
`CCC(=O)N1C2C3N(C(=O)CC)C1C1N(C(=O)CC)C(C(N1C(=O)CC)N3C(=O)CC)N2C(=O)CC`: the activity, negative = inhibition is inactive: 0.891%.
Turning to `COC(=O)c1cc2c(s1)N=C(c1ccccc1)N(C)P2(=O)N1CCOCC1` (stereo unspecified), the activity, negative = inhibition is inactive: 5.24%.
The result for `CC(=O)NC(SC(=S)N(CC(C)C)CC(C)C)C(Cl)(Cl)Cl` (stereo unspecified) reads inactive: -1.13%; that for `Cc1ccc(OP(=O)(Nc2ccccn2)Oc2ccc(C)cc2)cc1`, inactive: -0.0876%; that for `O=P1(N(CCCl)CCCl)OCCC2CCCCN21` (stereo unspecified), inactive: -8.64%.
As for `c1ccc(-c2nn[nH]n2)c(-c2nn[nH]n2)c1`, the figure is inactive: -7.3%.
In the case of `Cc1ccc(NP(=O)(Oc2cccc(C)c2)Oc2cccc(C)c2)nc1`, the activity, negative = inhibition is inactive: -1.53%.
As for `O=C(NC1CCS(=O)(=O)C1)NP(=S)(Oc1ccccc1)Oc1ccccc1` (stereo unspecified), the figure is inactive: 6.85%.
The result for `CCNC(=S)/N=C(\N)N[N+](=O)[O-]` reads inactive: -1.17%; that for `CC(=O)Nc1ccc([As](=O)(O)O)c(O)c1`, inactive: -10.3%; that for `CC(=O)Nc1ccc(Oc2c([N+](=O)[O-])cc([N+](=O)[O-])cc2[N+](=O)[O-])cc1`, inactive: -5.63%.
The result for `C[C@H]1OP(=O)(Oc2ccccc2)C[C@@H]2O[C@@H]21` (stereo partly specified) reads inactive: -1.49%; that for `C[C@@H]1C=CCP(=O)(Oc2ccccc2)O1` (stereo partly specified), inactive: 1.89%.
As to `N#C/C(=C\c1ccc(N(CCBr)CCBr)cc1)C(N)=O`, the activity, negative = inhibition is inactive: 25.5%.
As for `COC(=O)C1(C)COP(=O)(NCc2ccccc2)OC1` (stereo unspecified), the figure is inactive: -7.82%.
As for `CC(C)(C)C(=O)NC(Sc1ccccc1)C(Cl)(Cl)Cl` (stereo unspecified), the figure is inactive: 7.22%; as for `CCc1cc(O)c([N+](=O)[O-])c(C)c1[N+](=O)[O-]`, inactive: -0.718%.
The result for `CCOc1ccc(C2=NCC(CBr)S2)cc1` (stereo unspecified) reads inactive: 0.221%.
Consider `Oc1ccccc1CNc1ccccn1`, for which the activity, negative = inhibition is inactive: 1.86%.
The result for `O=C(NC(Sc1ccncn1)C(Cl)(Cl)Cl)c1ccccc1` (stereo unspecified) reads inactive: -0.432%; that for `Nc1cc(N)c2nonc2c1[N+](=O)[O-]`, inactive: 1.22%.
The result for `CC(C)CC(=O)NC(Sc1ccc(Cl)cc1)C(Cl)(Cl)Cl` (stereo unspecified) reads inactive: 1.67%; that for `CN1CCCC(OC(=O)C(c2ccccc2)c2ccccc2)C1` (stereo unspecified), inactive: -1.93%; that for `Clc1ccc(Cl)c(NC2=NCC(CBr)S2)c1` (stereo unspecified), inactive: 2.8%.
As for `COc1ccccc1OP(=O)(Nc1ccc(C)cn1)Oc1ccccc1OC`, the figure is inactive: -10.3%; as for `Cc1ccc(OP(=O)(Nc2nccs2)Oc2ccc(C)cc2)cc1`, inactive: 8.41%; as for `CN(C(=O)Cc1ccc(Cl)c(Cl)c1)[C@H]1CCCC[C@H]1N1CCCC1`, inactive: -0.0291%.
As to `Cc1ccc(N/C(=N/P(=O)(N2CCOCC2)N2CCOCC2)N2CCOCC2)cc1`, the activity, negative = inhibition is inactive: -10.6%.
On to `NC(=O)c1cc([N+](=O)[O-])cc([N+](=O)[O-])c1N`, for which the activity, negative = inhibition was inactive: -6.19%.

The values above are taken from PubChem BioAssay AID504891 (National Center for Advancing Translational Sciences (NCATS), 2011).
